According to PubChem BioAssay AID2101 (National Center for Advancing Translational Sciences (NCATS), 2009):
“And” between values parts separate entries of the source, which are not always exact repeats. Equal entries are not always repeated. The list shows a part of the results, in another mix than the full data. Records with an inconclusive call do not appear. The source made the active and inactive calls. The call rests on the fitted dose curve; in most records, active means well fitted inhibition curve with a large enough effect; inconclusive means small, poorly fitted or top-dose-only effect, or effect the other way, or another doubt; inactive means no such curve, though single readings can be large or run the other way.

Biological target: Lysosomal acid glucosylceramidase (Homo sapiens) (UniProt P04062)
Experiment: qHTS Assay for Inhibitors and Activators of N370S glucocerebrosidase as a Potential Chaperone Treatment of Gaucher Disease;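 further: 0% = full enzyme activity and -100% = no enzyme basal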
Settings: N370S GC spleen homogenate, 4MU-glucoside fluorescence
Text: NIH Chemical Genomics Center [NCGC]
NIH Molecular Libraries Probe Production Centers Network [MLPCN]
Assay Submitter (PI): Wei Zheng
Glucocerebrosidase (GC) catalyzes the hydrolysis of beta-glucocerebroside to glucose and ceramide in lysosomes. Mutations in the glucocerebrosidase gene result in Gaucher disease, an autosomal recessive lysosomal storage disorder. Many of the mutations encountered in patients with Gaucher disease are missense alterations that may cause misfolding, decreased stability and/or mistrafficking of this lysosomal protein. […] These inhibitors include iminosugar analogs and three non-iminosugar inhibitors identified from a previous HTS of 62,000 compounds with the wild type recombinant enzyme. However, the enhancement of enzyme activity by the chaperone action of an enzyme inhibitor must be balanced against the direct inhibition of the enzyme. An enzyme activator could also function as a chaperone by binding to the enzyme and helping to correct its misfolding and mistrafficking. While activators for GC have not yet been identified, they may have better therapeutic potential than inhibitors. Therefore the discovery and development of chemical activators may provide a new strategy for the chaperone therapy.
We have optimized a new assay using N370S mutant GC derived from the spleen of a Gaucher patient. […] In addition, the MLPCN compound library has expanded, which increases the chance of finding new and better probes.
NCGC Assay Protocol Summary:
This is a fluorogenic enzyme assay with 4-methylumbelliferyl-beta-D-glucopyranoside as the substrate and N370S glucocerebrosidase from human spleen homogenate as the enzyme preparation. Upon the hydrolysis of this fluorogenic substrate, the resulting product, […] which can be detected by a standard fluorescence plate reader. Data were normalized to the controls for basal activity (without enzyme) and 100% activity (with enzyme). The AC50 values were determined from concentration-response data modeled with the standard Hill equation.
Assay buffer: 50 mM citric acid (titrated with potassium phosphate to pH 5.0), 100 mM potassium chloride, 10 mM sodium chloride, 1 mM magnesium chloride, 0.01% Tween-20.
1536-well assay protocol:
(1) Add 2 ul/well of spleen homogenate (27 ug final)
(2) Add 23 nL compounds in DMSO solution. The final titration was 0.5 nM to 58 uM.
(3) Add 2 ul of substrate (1 mM final)
(4) Incubate at 37C for 40 min.
(5) Add 2 ul stop solution (1M NaOH and 1M Glycine mixture, pH 10)
(6) Detect the assay plate in a ViewLux plate reader (PerkinElmer) with Ex=365 nm and Em=440nm.
Keywords: Glucocerebrosidase, beta-glucosidase, Gaucher Disease, pharmacological chaperone, chaperone therapy, high throughput screening, glucocerebrosidase inhibitor, MLSMR, MLSCN, NIH Roadmap, qHTS and NCGC

[1] = at 59.4 µM (top of the series) unless noted

For `CCCOP(=S)(Nc1nc(N)cc(=O)[nH]1)OCCC`, the activity change, negative = inhibition [1] was inactive: -15.9%.

With `CCOP(=O)(Nc1cccc2ccccc12)OCC` the activity change, negative = inhibition [1] was inactive: 29.7%.

For `O=C(OC1CN2CCC1CC2)c1ccc(Cl)cc1` (centres undefined), the activity change, negative = inhibition [1] was inactive: 1.57%.

`CN(C(=O)Cc1ccc(Cl)c(Cl)c1)[C@@H]1CC[C@]2(CCCO2)C[C@H]1N1CCCC1` was tested, and the activity change, negative = inhibition [1] was inactive: -35.4% and inactive: -3.88%.

With `O=[As](O)(O)c1cccnc1` the activity change, negative = inhibition [1] was inactive: 0.371%.

`COc1cc(C(=O)NCC2(N3CCOCC3)CCCCC2)cc(Cl)c1OC(C)C` was tested, and the activity change, negative = inhibition [1] was inactive: -12.9%.

In the case of `CS(=O)(=O)c1ccc(Cl)c(NC(=O)COC(=O)C(O)(c2ccccc2)c2ccccc2)c1`, the activity change, negative = inhibition [1] is reported as inactive: -8.61%.

In the case of `Cc1cccc(OCC(=O)OC2CN3CCC2CC3)c1` (centres undefined), the activity change, negative = inhibition [1] is reported as inactive: 1.68%.

`O=[As](O)(c1cccc(O)c1)c1cccc(O)c1` was tested, and the activity change, negative = inhibition [1] was inactive: 6.25%.

With `NC(=O)Nc1ccc([As](=O)(O)O)cc1` the activity change, negative = inhibition (at 21.6 µM (top of the series)) was inactive: 5.53% and the activity change, negative = inhibition (at 59.4 µM (top of the series)) was inactive: 0.802% and inactive: 6.39%.

In the case of `N#CCCN(C(=O)COC(=O)C(O)(c1ccccc1)c1ccccc1)c1ccc(F)cc1`, the activity change, negative = inhibition [1] is reported as inactive: -26.4%.

With `CCOP1(=S)c2c(C)nn(CCC#N)c2N=C(c2ccc(F)cc2)N1C` (centres undefined) the activity change, negative = inhibition [1] was inactive: 8.61%.

In the case of `CN(C(=O)Cc1ccccc1)[C@@H]1CC[C@]2(CCCO2)C[C@H]1N1CCCC1`, the activity change, negative = inhibition [1] is reported as inactive: -3.91% and inactive: -4.74%.

`O=[N+]([O-])c1ccc2c(c1)nnn2O` was tested, and the activity change, negative = inhibition [1] was inactive: 4.4%.

With `O=P(Nc1nccs1)(Oc1ccccc1)Oc1ccccc1` the activity change, negative = inhibition [1] was inactive: 13.3%.

`O=P(Nc1nccs1)(c1ccccc1)c1nc2ccccc2s1` (centres undefined) was tested, and the activity change, negative = inhibition [1] was inactive: 5.4%.

`CS(=O)(=O)c1cc([N+](=O)[O-])c2no[n+]([O-])c2c1` was tested, and the activity change, negative = inhibition [1] was inactive: -19.4%.

For `Nc1ccccc1[As](=O)(O)c1ccccc1`, the activity change, negative = inhibition [1] was inactive: -0.577%.

In the case of `O=C(O)COc1ccc([As](=O)(O)O)cc1[N+](=O)[O-]`, the activity change, negative = inhibition [1] is reported as inactive: -7.97%.

For `O=P1(Nc2ncccn2)COc2ccccc2OC1`, the activity change, negative = inhibition [1] was inactive: 10.1%.

For `Nc1cccc([As](=O)(O)c2ccccc2)c1`, the activity change, negative = inhibition [1] was inactive: 4.42%.

With `O=[As](O)(c1cccs1)c1cccs1` the activity change, negative = inhibition [1] was inactive: 1.41%.

For `Cc1ccc(OCC(=O)OC2CN3CCC2CC3)cc1` (centres undefined), the activity change, negative = inhibition [1] was inactive: -2.69%.

`O=P1(Nc2ccc(Br)cn2)COc2ccccc2OC1` was tested, and the activity change, negative = inhibition [1] was inactive: 28.9%.

With `Cc1nn(-c2ccccc2)c2c1P(=O)(N1CCOCC1)N(C)C(c1ccccc1)=N2` (centres undefined) the activity change, negative = inhibition [1] was inactive: -21.2%.

In the case of `CC1CCC(C(C)C)C(OP(=O)(Nc2ccccn2)c2ccccc2)C1` (centres undefined), the activity change, negative = inhibition [1] is reported as inactive: 11.8%.

In the case of `CN(C)C1(CNC(=O)c2ccc(S(C)(=O)=O)cc2)CCCCC1`, the activity change, negative = inhibition [1] is reported as inactive: 11.3%.

`O=C(/C=C/c1ccccc1)OC1CN2CCC1CC2` (centres undefined) was tested, and the activity change, negative = inhibition [1] was inactive: 20.5%.

For `COc1ccccc1CNC(=O)COC(=O)C(O)(c1ccccc1)c1ccccc1`, the activity change, negative = inhibition [1] was inactive: -23.3%.

In the case of `CC(C)/C=N\N=C(\N)N[N+](=O)[O-]`, the activity change, negative = inhibition [1] is reported as inactive: -2.39%.

For `CN(C(=O)Cc1ccc(Cl)c(Cl)c1)[C@@H]1CCCC[C@H]1N1CCCC1`, the activity change, negative = inhibition [1] was inactive: -8.53% and inactive: -25.4% and inactive: -2.93%.

`O=[As](O)(c1ccccc1Br)c1ccccc1Br` was tested, and the activity change, negative = inhibition [1] was inactive: 0.678%.

`O=P1(Nc2ccccn2)COc2ccccc2OC1` was tested, and the activity change, negative = inhibition [1] was inactive: -3.93%.

In the case of `CCOP(=O)(NC(=NC(C)c1ccccc1)NC(C)c1ccccc1)OCC` (centres undefined), the activity change, negative = inhibition [1] is reported as inactive: -11.3%.

In the case of `CCOP(=O)(Nc1ccc(C)cn1)OCC`, the activity change, negative = inhibition [1] is reported as inactive: 2%.

In the case of `CN(CCCl)Cc1cc(Cl)c(NC2=NCCN2)c(Cl)c1`, the activity change, negative = inhibition [1] is reported as inactive: 1.71% and inactive: -1.22%.

`Clc1n[nH]nc1-c1nn[nH][15n]1` was tested, and the activity change, negative = inhibition [1] was inactive: 3.96%.

`CC(C)(C)C(=O)NC(Sc1ncccn1)C(Cl)(Cl)Cl` (centres undefined) was tested, and the activity change, negative = inhibition [1] was inactive: 3.44%.
